Results reported in patent publication US20220112309A1, “BISPECIFIC ANTIBODY AGAINST CD3 AND CD20 IN COMBINATION THERAPY FOR TREATING DIFFUSE LARGE B-CELL LYMPHOMA” (GENMAB A/S, priority 2020, published 2022).

Legend:
[1] = system: Raji; format: cell-based; settings: gemcitabine and/or oxaliplatin at EC30 concentrations, with or without epcoritamab, 48 hours
Method: (§1) Briefly, human Burkitt lymphoma (Raji) and DLBCL (SU-DHL-4) cell lines were used as target cells. Cells were cultured in culture medium (RPMI 1640 with HEPES and L-Glutamine supplemented with 10% heat-inactivated donor bovine serum with iron, and 1% [v/v] penicillin/streptomycin) to which 2 mM L-glutamine and 1 mM sodium pyruvate were added, at 37° C., 5% CO2. T cells, isolated from human healthy donor buffy coats (Sanquin) by negative selection using the RosetteSep™ Human T Cell Enrichment Cocktail (Stemcell Technologies), followed by density centrifugation over a Ficoll gradient, both according to the manufacturer's instructions, were used as effector cells. Isolated cells were washed twice in phosphate buffered saline (PBS) and counted using acridine orange/propidium iodide (AO/PI) viability staining solution (Nexcelom Bioscience) on a Cellometer® Auto 2000 Cell Viability Counter. […] B-cell viability and T-cell activation were measured by flow cytometry (count of CD22-positive cells; expression of the T-cell activation markers CD69, CD25, programmed cell death protein 1 (PD-1), and CD107 [lysosomal associated membrane protein 1; LAMP-1] on CD4+ and CD8+ T cells). Absolute cell numbers were determined by adding Accucheck Counting beads (100 μL/well) (Thermofisher) and calculated as follows: […]

[2] = system: SU-DHL-4; format: cell-based; settings: SU-DHL-4 cells; gemcitabine and/or oxaliplatin at EC30 concentrations, with or without epcoritamab; 48 hours
Method: as §1

[SP-4-2-(1R-trans)]-(1,2-cyclohexanediamine-N,N′)[ethanedioata(2-)-O,O′]platinum [oxaliplatin]
cytotoxicity of B cells [1]: induced cytotoxicity of B cells
cytotoxicity of B cells [2]: induced cytotoxicity of B cells
